How the values were obtained:
[1] = Pharmacokinetics: butyric acid in plasma after gavage; format: in vivo, SW620 tumor-bearing BALB/C nude mice; details: gavage 0.366 g/kg
Protocol: SW620 tumor-bearing mice were randomly divided into 3 groups (n = 5). BBA, BBA/CM-β-CD, and BBA/FA-PEG-CM-β-CD were administered by gavage at a dose of 0.366 g/kg. The blood was collected respectively from the heart at 0.25, 0.5, 1, 2, 3, 4, 6, 8, 12, 24, 36, 48, and 72 h after administration. The whole blood was quickly centrifuged at 2000 × g for 5 min, and the upper plasma was precisely aspirated. Then 0.35 mL of methanol was added, vortexed for 2 min, and centrifuged at 3350 × g for 15 min. The supernatant was used to detect butyric acid by HPLC [45]. The pharmacokinetic parameters were calculated by non-compartmental analysis using Drug Analysis System (DAS 2.1.1, Shanghai, China).

Kunming mice = format: in vivo; details: 15th day after single oral gavage
Protocol: All animals were given a single oral gavage of 0.2 mL of different dosage forms, and their body weight was monitored every day. Meanwhile, the toxicity and mortality of all animals were observed every day. The conventional changes such as the cases of the diet, urine, and feces were recorded. On the 15th day after treatment, the blood of each group was collected from the heart and centrifuged at 1,000 × g for 10 min to collect serum. An automated biochemical analyzer was used to detect serum alanine aminotransferase (ALT), aspartate aminotransferase (AST), blood urea nitrogen (BUN), and creatinine (Cr). Meanwhile, the heart, liver, lung, and kidney were quickly excised, washed with normal saline, and weighed. The visceral index is estimated according to the following formula as Viscera Index (%) = Viscera Weight / Body Weight × 100. And then, all the tissues were fixed with 10% formalin and stained with hematoxylin & eosin (H&E) for pathological analysis.

2-butyryl oxy-5-butylaminyl benzoic acid [BBA]
T1/2 [1]: 3.396 ± 0.791 h
Heart index (Kunming mice): 0.87 ± 0.08%
Kidney index (Kunming mice): 2.55 ± 0.62%
Liver index (Kunming mice): 7.05 ± 0.58%
Lung index (Kunming mice): 0.80 ± 0.21%
